In experiment [1] the target is Trypanothione reductase (Trypanosoma cruzi) (UniProt P28593). Nature of the experiment: Rate of NADPH oxidation by TcTR in presence of 100 uM NQ was determined in comparison to intrinsic oxidase activity. In outline: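 Quinone reductase activity of recombinant TcTR measured as NADPH oxidation at 340 nm. Buffer was 20 mM Hepes, 1 mM EDTA, 0.15 M KCl, pH 7.25, with 250 µM NADPH at 25 °C. Rate with naphthoquinone (100 µM for line 8, 25 µM for line 9) divided by intrinsic oxidase rate of enzyme plus NADPH alone. Mean of at least two measurements.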

The chains behind the UniProt entries cited, without tags or fusion partners. Where a name states a change or a piece, a line headed by the entry shows the natural chain unless it says otherwise.
UniProt P28593: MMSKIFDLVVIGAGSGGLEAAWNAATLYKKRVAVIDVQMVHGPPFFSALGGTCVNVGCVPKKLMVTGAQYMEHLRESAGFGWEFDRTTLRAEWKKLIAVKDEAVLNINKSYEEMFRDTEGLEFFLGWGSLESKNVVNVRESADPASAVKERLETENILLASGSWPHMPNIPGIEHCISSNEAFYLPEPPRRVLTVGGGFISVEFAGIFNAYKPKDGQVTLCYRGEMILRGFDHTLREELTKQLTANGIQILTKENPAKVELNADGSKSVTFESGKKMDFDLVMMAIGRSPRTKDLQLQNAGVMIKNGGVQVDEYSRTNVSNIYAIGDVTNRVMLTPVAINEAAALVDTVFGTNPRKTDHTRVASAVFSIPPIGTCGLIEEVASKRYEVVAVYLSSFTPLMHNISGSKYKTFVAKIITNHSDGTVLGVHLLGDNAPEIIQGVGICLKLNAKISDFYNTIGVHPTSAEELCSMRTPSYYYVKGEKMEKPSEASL

Experiment [2] relates to Dihydrolipoyl dehydrogenase (Trypanosoma cruzi). Nature of the experiment: The second order rate constant of the TcLipDH (Trypanosoma cruzi lipoamide dehydrogenase) catalyzed NADH oxidation.

For the molecule `CC1=C(CCC(=O)NCCCN2CCN(C)CC2)C(=O)c2c(O)cccc2C1=O`, the x fold in experiment [1] is 1000 100µM. Also, the k cat/Km in experiment [2] was 11.3 10e4 M-1 s-1.
